{"sequences": {"note": "Amino acid sequences for entries named in this document (tags omitted). Residues count along the entry.", "UniProt Q9LZD3, 75-638 L596A/I613A": "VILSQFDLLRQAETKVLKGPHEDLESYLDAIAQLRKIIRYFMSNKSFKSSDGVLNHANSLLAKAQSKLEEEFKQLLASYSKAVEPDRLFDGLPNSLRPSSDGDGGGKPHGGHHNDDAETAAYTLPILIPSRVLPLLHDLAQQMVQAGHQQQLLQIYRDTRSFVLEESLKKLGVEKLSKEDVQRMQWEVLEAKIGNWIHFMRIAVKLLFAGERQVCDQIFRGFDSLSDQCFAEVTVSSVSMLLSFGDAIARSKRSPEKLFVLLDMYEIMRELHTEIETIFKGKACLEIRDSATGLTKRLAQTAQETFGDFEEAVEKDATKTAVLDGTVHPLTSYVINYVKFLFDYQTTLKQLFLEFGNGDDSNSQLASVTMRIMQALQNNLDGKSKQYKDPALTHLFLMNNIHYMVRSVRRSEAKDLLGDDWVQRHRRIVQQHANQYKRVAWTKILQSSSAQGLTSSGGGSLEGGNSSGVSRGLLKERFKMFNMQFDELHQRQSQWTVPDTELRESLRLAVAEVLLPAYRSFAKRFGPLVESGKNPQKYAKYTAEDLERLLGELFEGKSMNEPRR"}, "source": "patent US20180362449A1", "about": "“THE EXOCYST AS A NOVEL DRUG TARGET OF ENDOSIDIN2 AND APPLICATION AS A THERAPEUTIC” (The Regents of the University of California, priority 2015, published 2018)", "key": {"EXO70A1-L596A;I613A [1]": {"biological_target": "T1, EXO70A1-L596A;I613A (Arabidopsis thaliana, UniProt Q9LZD3, I613A/L596A)", "set-up": "unit not given beside the values", "details": "MST, no unit"}, "EXO70A1-L596A;I613A [2]": {"biological_target": "T1, EXO70A1-L596A;I613A", "details": "10 μM protein, 400 μM ES2"}}, "data": [{"smiles": "COc1cc(/C=N/NC(=O)c2cccc(F)c2)cc(I)c1O", "note": "[ES2]", "values": [{"measurement": "Kd", "setting": "EXO70A1-L596A;I613A [1]", "result": "252+50.6"}, {"measurement": "integrities of STD-NMR spectrum in ES2 relative to wild-type EXO70A1", "setting": "EXO70A1-L596A;I613A [2]", "result": "about 20 % of the wild-type EXO70A1 protein"}]}]}
